Test results as given in patent US20150265680A1, “THERAPEUTIC AGENT FOR AMYOTROPHIC LATERAL SCLEROSIS” (DAIICHI SANKYO COMPANY, LIMITED, priority 2012, published 2015).

System: SOD1^G93A mice
Conditions: riluzole 16 mg/kg intraperitoneally once a day from age 10 weeks until death, mean ± SE

With `Nc1nc2ccc(OC(F)(F)F)cc2s1` [Riluzole] the Survival period was 134 ± 3 (6) day.
